# Molecular target: Sodium-dependent dopamine transporter (Rattus norvegicus, UniProt P23977)
# Sequences of proteins named here, by UniProt entry; tags and fusion partners are left off.
# UniProt P23977, whole entry: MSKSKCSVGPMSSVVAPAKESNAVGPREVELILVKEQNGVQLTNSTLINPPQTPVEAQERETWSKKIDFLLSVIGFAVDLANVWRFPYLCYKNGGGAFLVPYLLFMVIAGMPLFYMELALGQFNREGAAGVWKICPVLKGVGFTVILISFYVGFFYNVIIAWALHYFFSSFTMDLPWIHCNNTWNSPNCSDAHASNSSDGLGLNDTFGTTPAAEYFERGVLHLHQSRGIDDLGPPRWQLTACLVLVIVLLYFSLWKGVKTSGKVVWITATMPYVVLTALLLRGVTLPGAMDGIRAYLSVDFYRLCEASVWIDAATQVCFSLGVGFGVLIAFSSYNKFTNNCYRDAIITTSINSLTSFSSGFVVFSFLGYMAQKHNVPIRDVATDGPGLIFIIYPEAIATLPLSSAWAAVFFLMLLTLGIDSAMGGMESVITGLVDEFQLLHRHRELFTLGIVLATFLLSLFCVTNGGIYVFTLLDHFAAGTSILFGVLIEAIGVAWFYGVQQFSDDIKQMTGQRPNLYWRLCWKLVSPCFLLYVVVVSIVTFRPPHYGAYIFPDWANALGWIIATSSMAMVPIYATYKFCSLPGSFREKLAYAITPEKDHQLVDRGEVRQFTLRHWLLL
# Test: Affinity against cocaine binding site of dopamine transporter in rat striatum using [3H]2b as radioligand.
# Assay type: tissue-based
compound,measurement,value
COC(=O)[C@@H]1C2CC[C@H](C[C@@H]1c1ccc(OC)cc1)N2C,IC50,8.14 nM

# Reference: ChEMBL document CHEMBL1125198, “Synthesis, ligand binding, QSAR, and CoMFA study of 3 beta-(p-substituted phenyl)tropane-2 beta-carboxylic acid methyl esters” (J Med Chem, 1991)
